This is a selection; strong and weak results do not stand in their true shares. Calls of active or inactive are those of the source. The calls were made as follows: active = hit-call score of the fitted dose curve at least 0.9, where 1 is the maximum; inactive = score below 0.9.
Test: ATG_RORE_CIS: Attagene CIS-FACTORIAL HepG2 Assay for human RAR-related Orphan Receptor Element (RORE) (AID 2282959)
Conditions: HepG2 Attagene cis-factorial RORE reporter, mRNA; actives raise or lower the signal

Row | SMILES | outcome | AC50
1 | C=CC(=O)O[C@H]1C[C@@H]2CC[C@@]1(C)C2(C)C | inactive | –
2 | O=c1cc(-c2ccccc2)oc2cc(O)cc(O)c12 | inactive | –
3 | C=CC(=O)OCCCCCCOC(=O)C=C | – | active: 40.1 µM
4 | O=C(O)CC(C(=O)O)C(CC(=O)O)C(=O)O (stereo not given) | inactive | –
5 | CCCCCCCC/C=C\CCCCCCCC(=O)OCC | inactive | –
6 | c1ccc(-c2nc3ccccc3[nH]2)cc1 | inactive | –
7 | CCC1(C)NC(=O)NC1=O (stereo not given) | inactive | –
8 | O=S(=O)(O)c1cc(S(=O)(=O)O)c2c(N=Nc3ccccc3)c(O)ccc2c1 | inactive | –
9 | CC(C)(C)c1cccc(O)c1 | inactive | –
10 | Cc1ccc(N(C)C)cc1 | inactive | –

— PubChem BioAssay (EPA / NIEHS)
